## Yeast mating assay B: variants of the scFv Ab-14

All variants were tested on one target, the spike HR2 peptide PDVDLGDISGINAS (SARS-CoV-2).

Ab-14 is the parent antibody, in scFv form: VH, then a (GGGGS)3 linker, then VL. The heavy chain is unchanged in all variants.
VH: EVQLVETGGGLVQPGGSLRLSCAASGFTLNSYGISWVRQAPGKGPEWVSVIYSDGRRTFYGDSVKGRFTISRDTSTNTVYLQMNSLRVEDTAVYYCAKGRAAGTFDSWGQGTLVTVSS
VL: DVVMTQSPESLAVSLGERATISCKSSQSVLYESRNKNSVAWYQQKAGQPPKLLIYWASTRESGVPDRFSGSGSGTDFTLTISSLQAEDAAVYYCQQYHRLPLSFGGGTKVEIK

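The starting antibody came from a phage panning campaign against this peptide. These sequences belong to a second round, designed from the earlier measurements on random variants of the parent. Several design methods are mixed in this list. In AlphaSeq, yeast of one mating type display the scFv and yeast of the other type display the target. Mating (16 h, 30 °C) was followed by selection of diploids and sequencing of their barcodes. A regression on co-assayed BCL2-family reference pairs converts the normalised counts of each replicate to an apparent Kd. There are six technical replicates.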

Each variant is given by its three light chain CDRs, as the data file delimits them; those of the parent are KSSQSVLYESRNKNSVA, WASTRES, QQYHRLPLS.
Values are log10 of the apparent Kd in nM; lower means stronger binding.
Replicates are averaged; those with no signal do not enter the mean.
Where no diploid with the target was found in any replicate, the entry reads "no signal": below detection, most likely a poor binder, though not proof of it.
Nonspecific signal, from three strains lacking the peptide, appeared in 4% of pairings of all light chain designs, centred on 2.64 (5% of these signals below 1.59); values are not corrected for it. The control count says in how many pairings with the empty strains this scFv gave a signal.

| # | CDR-L1 | CDR-L2 | CDR-L3 | mean log10 Kd (nM) | seen in | control signals |
|---|---|---|---|---|---|---|
| 1 | KLMQSELYESRMKNSVA | NASTRES | QQYHRLPLS | 1.56 | 4 of 6 | 0 of 18 |
| 2 | MISQLYNMGQFAINSVA | QASTRNA | QQYDRLPLT | 1.83 | 6 of 6 | 0 of 18 |
| 3 | KSSQSVWYESRNKNSVA | DASTREA | QQYHTLVLS | no signal | 0 of 6 | 0 of 18 |
| 4 | KSSISDLYESRNKNSVA | AASTRES | QQYHRLPLS | 0.12 | 6 of 6 | 0 of 18 |
| 5 | KIGQQLNQLMHQKNNVA | DLVMREK | QQYHRLPLS | 0.30 | 6 of 6 | 0 of 18 |
| 6 | KSGQGGLYESRNWNSVA | GASTRES | QQYHRLPLS | -0.08 | 6 of 6 | 2 of 18 |
| 7 | SLGLVTMLEYAGRNNVA | NNSTREE | QQYDRLPLS | 1.49 | 3 of 6 | 0 of 18 |
| 8 | QIQGKLQEHGNQKANVA | QGVESRN | QQYFRLPLT | 1.15 | 6 of 6 | 2 of 18 |
| 9 | KLDQSVLYESRNKNSVA | GASTRES | QQYHRLPLS | -0.30 | 6 of 6 | 4 of 18 |
| 10 | KSSQSVVYESRNKNSVA | WASTRAS | QQCHRLPLS | no signal | 0 of 6 | 1 of 18 |
| 11 | NVSIKEPGNWRMWDSVA | HSSLRAE | QQYWRLPLM | 0.73 | 6 of 6 | 0 of 18 |
| 12 | KLDYLNGYSDIGGDSIA | EVSTAGM | QQYIRLPLS | 1.61 | 3 of 6 | 0 of 18 |
| 13 | KISYSVLSESRNKNSVA | WASTRES | QQYHRLPNS | no signal | 0 of 6 | 0 of 18 |
| 14 | KVSQKDPMESRNKNSVA | HASLRES | QQYHRLPLS | 0.01 | 6 of 6 | 0 of 18 |
| 15 | KIDGQRSYDAGRERAIA | DVTIRFW | QQYARLPLL | 1.47 | 6 of 6 | 2 of 18 |
| 16 | KLNKHAWDFNETWNSVA | DHSMRVT | QDYIRLPLT | 2.23 | 2 of 6 | 1 of 18 |
| 17 | KITFQMMSSNAHQYSIA | QTNVYSQ | QQYNRLPLD | no signal | 0 of 6 | 0 of 18 |
| 18 | KSSQSVLYESRNKNSVA | WRSTRES | QAYHRLLLS | no signal | 0 of 6 | 0 of 18 |
| 19 | KSSQDVLSESRNKNSVA | HASTRES | QQYHRMPLS | 0.56 | 6 of 6 | 2 of 18 |
| 20 | SLAEYAHMESRNKNSVA | DNSTRES | QHYDRLPLS | 1.69 | 6 of 6 | 2 of 18 |
| 21 | KSSQSVLSESRNKNSVA | DASTRES | QQYHRLPLS | 0.05 | 6 of 6 | 3 of 18 |
| 22 | IISTVDAYESRNKNSIA | DQSTRGS | QQYDRLPLS | 0.65 | 6 of 6 | 1 of 18 |
| 23 | KSSQSVLYEDRNKNSVA | QASTRES | QQYHRLPLS | 1.09 | 6 of 6 | 0 of 18 |
| 24 | HLSAMWGVESVKSRNVA | ENNTREQ | QQYDRLPLS | 2.40 | 4 of 6 | 0 of 18 |
| 25 | KSSISYLYESMNKNSVA | DGSTRES | QQYHRLPLS | 0.17 | 6 of 6 | 0 of 18 |
| 26 | KLRQSTLYESRNDNSVA | WASTRES | QQYHRLPLS | 1.44 | 6 of 6 | 1 of 18 |
| 27 | KVSILDDGGDRNKNSVA | HASLRES | QQYHRLPLS | 0.40 | 5 of 6 | 0 of 18 |
| 28 | KLQQSWPYESRNKNSVA | NASTRLS | QQYHRLPLS | -0.09 | 6 of 6 | 0 of 18 |
| 29 | KYEYSELELSRNKNSVA | NASTREE | QDYHRLPLS | 0.43 | 6 of 6 | 0 of 18 |
| 30 | IVSQMMLWGLHAKNSIA | EAVTRYN | QQYDRLPLF | 1.87 | 5 of 6 | 0 of 18 |
| 31 | MMTMFPNEPTGDSNAIA | DHSQLNT | QQYQRLPLM | 0.55 | 6 of 6 | 1 of 18 |
| 32 | KNSQGVLYESREKNSVA | WASTRHS | QFYHRLILS | no signal | 0 of 6 | 0 of 18 |
| 33 | KSEMSVYYGERNKNSVA | QASTRES | QQYHRLPLS | 0.55 | 6 of 6 | 0 of 18 |
| 34 | KQSQSKLYESRNKNSVA | DASTRES | QQYHRLPLS | -0.32 | 6 of 6 | 1 of 18 |
| 35 | KCSNSVSYESRNKNSVA | WASTTFS | QQYPRLPLS | no signal | 0 of 6 | 1 of 18 |
| 36 | QFQFEDVQYGVNEQAIA | EENQRMQ | QQYFRLPLI | 0.93 | 6 of 6 | 2 of 18 |
| 37 | HISMSVGLTSFHKNSVA | ENSTREN | QQYDRLPLS | 1.81 | 3 of 6 | 2 of 18 |
| 38 | MSSQSVLYEGRNKNSIA | WASQRES | QQYERLPIS | no signal | 0 of 6 | 0 of 18 |
| 39 | KVSQSVLYWSGTKNSVA | NASQRES | QQYHRLPLS | 0.38 | 6 of 6 | 0 of 18 |
| 40 | KLSQSVEYESRDKNSVA | QAQTRLS | QQYHRLPLS | 0.27 | 6 of 6 | 0 of 18 |
| 41 | KLPQSSLYESRNKNSVA | NASTRLS | QQYHRLPLS | -0.23 | 6 of 6 | 0 of 18 |
| 42 | KSSFSVLYESRNKNSVA | WASTRES | QQYHRLPLF | 2.35 | 2 of 6 | 0 of 18 |
| 43 | KQSQSQGGMQRNKNSVA | EASTREM | QQYHRLPLS | 0.12 | 6 of 6 | 2 of 18 |
| 44 | KVEQSFLYESRNKNSVA | NASQRES | QQYHRLPLS | -0.54 | 6 of 6 | 0 of 18 |
| 45 | KLQQSVLYESRNKNNVA | EASTRED | QQYHRLPLS | -0.22 | 6 of 6 | 1 of 18 |
| 46 | MISQLYNMGQFAINSVA | QASERSN | QQYDRLPLI | 2.95 | 5 of 6 | 1 of 18 |
| 47 | KSSMSVKFESRNKNSVA | DASTRES | QQYHRLPLS | 0.10 | 6 of 6 | 0 of 18 |
| 48 | YSSQSVLYESRNKNSVA | DADTRES | QQYHRLPLS | 0.42 | 6 of 6 | 2 of 18 |
| 49 | KLPQSHLYESRNKNSVA | NASTREQ | QQYHRLPLS | -0.24 | 6 of 6 | 0 of 18 |
| 50 | TIGGTLMYGVRNRSNVA | EVSQRLN | QQYDRLPLV | 1.10 | 6 of 6 | 2 of 18 |
| 51 | KSSQSVLYESRNKNSVA | SASTRES | QQYHRHPLS | 1.17 | 6 of 6 | 1 of 18 |
| 52 | HSSQSVLYESLNKNSVA | WASTRES | QQYHRLPLS | 1.36 | 6 of 6 | 0 of 18 |
| 53 | KLMQSMLYESRNKNSVA | NASTRES | QQYHRLPLS | -0.32 | 6 of 6 | 0 of 18 |
| 54 | SIGQLVGYGQRNKNSVA | QMSTREN | QQYDRLPLS | -0.22 | 6 of 6 | 0 of 18 |
| 55 | KLSQQNKYESRMKNSVA | NASQRES | QQYHRLPLS | 0.23 | 6 of 6 | 2 of 18 |
| 56 | KSSQSVLDQSRNKNSVA | DASTRES | QQYHRLPLS | 0.31 | 6 of 6 | 1 of 18 |
| 57 | HLYTGNYTQKNRTNAIA | DARERVQ | QQYSRLPIM | 1.40 | 6 of 6 | 0 of 18 |
| 58 | HLSPSVLYESRNKNSVA | NASTRES | QQYHRLPLN | 0.71 | 6 of 6 | 2 of 18 |
| 59 | IVSQLMLWGMHVKNSIA | EAQTRIN | QQYERLPLF | -0.26 | 6 of 6 | 1 of 18 |
| 60 | MISNVMNTLTRQGNNVA | DLAERER | QQYFRLPLS | 1.03 | 6 of 6 | 0 of 18 |
| 61 | KVDQEVGGLSRNANAVA | AASTRES | QQYHRLPLS | -0.19 | 6 of 6 | 0 of 18 |
| 62 | KSSQSVLYESNNKYSVA | WASTRES | QQYHRLPLS | 1.44 | 6 of 6 | 0 of 18 |
| 63 | KSQQSVLYESRNKNSVA | QASTRES | QQYHRLPLS | -0.19 | 6 of 6 | 1 of 18 |
| 64 | KSGGGELYESRNKNSVA | GASMRES | QQYHRLPLS | -0.12 | 6 of 6 | 0 of 18 |
| 65 | KSSGSVLYESNNKNSVA | HASTRED | QQYHRLPLS | 0.13 | 6 of 6 | 1 of 18 |
| 66 | KVSQSWLYESRNKNSVA | NASQREQ | QQYHRLPLS | -0.20 | 6 of 6 | 3 of 18 |
| 67 | QLTQVQQEDTIGEYNVA | HAEVSGR | QQYSQLPLI | no signal | 0 of 6 | 1 of 18 |
| 68 | HSSPSVPYESRNKNSVA | EASTREE | QDYHRLPLS | 0.04 | 6 of 6 | 0 of 18 |
| 69 | KLRHHNLDFYEVENNIA | GESMRAV | QQYYRLPLN | 1.05 | 6 of 6 | 0 of 18 |
| 70 | KLQQSALYESRNKNSVA | NASTRMS | QQYHRLPLS | 0.16 | 6 of 6 | 0 of 18 |
| 71 | KISQMTRVGSTHNNSIA | EEATRAK | QQYHRLPLF | 1.97 | 6 of 6 | 1 of 18 |
| 72 | KLYQSMGYLSHNKNSIA | DMQRREN | QQYHRLPLS | 1.13 | 6 of 6 | 1 of 18 |
| 73 | KLPNSTLYESRQKNSVA | WASTRLS | QQYHRLPLS | 1.30 | 6 of 6 | 1 of 18 |

Values of this round are not directly comparable with the first-round values of the same sequences.
The authors averaged sequences with at least three values out of six and counted those with two or fewer as poor binders.

The measurements come from Li et al. 2023 (doi:10.1038/s41467-023-39022-2) through the FLAb antibody collection.